The results in this text go back to patent US20240360179A1, “STAPLED PEPTIDES AND METHODS THEREOF” (FOG PHARMACEUTICALS, INC., priority 2021, published 2024).

Chains of the proteins cited; added tags and fusions are not shown. Residues count along the entry.
UniProt P35222, whole entry: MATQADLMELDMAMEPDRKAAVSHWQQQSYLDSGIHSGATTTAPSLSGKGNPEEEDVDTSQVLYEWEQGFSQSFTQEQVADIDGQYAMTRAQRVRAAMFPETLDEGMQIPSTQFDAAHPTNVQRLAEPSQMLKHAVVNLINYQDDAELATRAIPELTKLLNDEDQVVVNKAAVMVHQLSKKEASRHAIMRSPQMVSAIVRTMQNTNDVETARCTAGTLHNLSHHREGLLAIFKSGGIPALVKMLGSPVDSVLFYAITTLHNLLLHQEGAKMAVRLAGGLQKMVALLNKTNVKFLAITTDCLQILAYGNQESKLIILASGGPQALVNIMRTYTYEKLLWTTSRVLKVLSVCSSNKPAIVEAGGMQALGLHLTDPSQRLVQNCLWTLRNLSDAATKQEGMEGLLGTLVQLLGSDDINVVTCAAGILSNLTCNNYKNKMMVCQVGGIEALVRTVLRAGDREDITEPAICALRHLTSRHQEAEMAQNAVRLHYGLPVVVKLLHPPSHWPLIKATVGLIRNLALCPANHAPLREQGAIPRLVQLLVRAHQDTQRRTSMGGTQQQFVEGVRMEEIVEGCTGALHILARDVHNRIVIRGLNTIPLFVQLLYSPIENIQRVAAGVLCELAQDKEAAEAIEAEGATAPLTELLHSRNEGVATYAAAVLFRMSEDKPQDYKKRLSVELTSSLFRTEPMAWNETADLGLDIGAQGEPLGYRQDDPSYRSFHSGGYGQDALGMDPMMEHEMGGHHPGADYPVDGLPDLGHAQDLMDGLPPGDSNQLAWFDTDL
UniProt P35222, 2-781: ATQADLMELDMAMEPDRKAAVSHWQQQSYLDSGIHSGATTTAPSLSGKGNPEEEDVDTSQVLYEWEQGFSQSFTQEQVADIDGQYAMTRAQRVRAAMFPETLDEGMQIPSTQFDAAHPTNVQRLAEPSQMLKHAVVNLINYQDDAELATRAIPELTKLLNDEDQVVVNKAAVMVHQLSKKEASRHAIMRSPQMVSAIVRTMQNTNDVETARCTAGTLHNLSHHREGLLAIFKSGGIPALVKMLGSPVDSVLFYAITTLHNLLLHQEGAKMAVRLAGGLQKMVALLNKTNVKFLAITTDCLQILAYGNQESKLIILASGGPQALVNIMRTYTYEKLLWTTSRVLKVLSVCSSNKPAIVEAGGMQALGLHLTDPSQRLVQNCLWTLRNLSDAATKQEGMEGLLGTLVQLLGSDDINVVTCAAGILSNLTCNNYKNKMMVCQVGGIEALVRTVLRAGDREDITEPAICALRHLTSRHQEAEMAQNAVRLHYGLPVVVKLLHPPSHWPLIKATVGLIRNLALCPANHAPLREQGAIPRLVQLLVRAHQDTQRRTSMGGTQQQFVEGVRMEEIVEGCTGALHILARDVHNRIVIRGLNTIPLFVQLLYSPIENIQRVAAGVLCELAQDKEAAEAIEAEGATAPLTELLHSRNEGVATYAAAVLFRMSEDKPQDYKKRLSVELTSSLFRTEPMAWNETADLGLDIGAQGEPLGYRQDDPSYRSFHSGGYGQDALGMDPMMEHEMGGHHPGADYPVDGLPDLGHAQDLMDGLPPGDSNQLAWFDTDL

In general, IC50 refers to the point on the concentration scale where inhibition reaches its midpoint.

Test [1] has as its target beta-catenin/TCF4 interaction (Homo sapiens, UniProt P35222). Put plainly: cell-based. Further details: host or cells: HEK293. The conditions noted are these: NanoBRET Abs IC50 (uM), absolute IC50. (In BRET a luciferase serves as donor, and the signal depends on an acceptor being close.)
For test [2], the target named is T1, full-length B-Catenin (Uniprot ID P35222) (Homo sapiens, UniProt P35222).
T1 construct: 10 nM full-length B-Catenin (Uniprot ID P35222)
The experiment in a line: biochemical. Type of test: binding. The conditions noted are these: beta-Catenin FP IC50 (nM), competition fluorescence polarization.

The target in test [3] is TCF/LEF luciferase reporter in DLD1 cells (Homo sapiens, UniProt P35222). Put plainly: TCF reporter assay in DLD1 cells (4% or 20% FBS). It is filed as cell-based. Conditions: read-out: DLD1 4% Abs IC50, 4% FBS.

On to `CC(=O)N1CCC[C@]12CC=CCCCC1(CCCC=CCCCOC(=O)N3CC[C@@]4(C3)NC(=O)[C@H](CCCCn3cc(nn3)C[C@@H](C(=O)N[C@@H](C)C(=O)N[C@@H](CO)C(N)=O)NC(=O)[C@H](Cc3csc5ccccc35)NC(=O)[C@H](Cc3ccsc3)NC4=O)NC(=O)[C@H](Cc3ccccc3)NC(=O)[C@H](C)NC(=O)C(C)(C)NC(=O)[C@H](Cc3cccc(C(=O)O)c3)NC(=O)[C@H](CC(=O)O)NC1=O)NC(=O)[C@H](CC(C)(C)C)NC(=O)[C@H](CC(=O)O)NC2=O` (stereo partly drawn) [I-416, Ac-PL3-Asp-Npg-B5-Asp-3COOHF-Aib-Ala-Phe-TriAzLys*3-PyrS2-3Thi-BztA-sAla*3-Ala-Ser-NH2], for which the IC50 in test [1] was under 1.5 µM; in test [2], under 50 nM.
The like results for `CC(=O)N1CCC[C@]12CC=CCCCC1(CCCC=CCCCOC(=O)N3CC[C@@]4(C3)NC(=O)[C@H](CCCCn3cc(nn3)C[C@@H](C(=O)N[C@H](C(=O)N[C@@H](CO)C(N)=O)C(C)C)NC(=O)[C@H](Cc3csc5ccccc35)NC(=O)[C@H](Cc3ccsc3)NC4=O)NC(=O)[C@H](Cc3ccccc3)NC(=O)[C@H](C)NC(=O)C(C)(C)NC(=O)[C@H](Cc3cccc(C(=O)O)c3)NC(=O)[C@H](CC(=O)O)NC1=O)NC(=O)[C@H](CC(C)(C)C)NC(=O)[C@H](CC(=O)O)NC2=O` (stereo partly drawn) [I-417, Ac-PL3-Asp-Npg-B5-Asp-3COOHF-Aib-Ala-Phe-TriAzLys*3-PyrS2-3Thi-BztA-sAla*3-Val-Ser-NH2] were, in that order, 1.5 to 3 µM and under 50 nM.
Regarding `CC(=O)N1CCC[C@]12CC=CCCCC1(CCCC=CCCCOC(=O)N3CC[C@@]4(C3)NC(=O)[C@H](CCCCn3cc(nn3)C[C@@H](C(=O)N[C@@H](C)C(N)=O)NC(=O)[C@H](Cc3csc5ccccc35)NC(=O)[C@H](Cc3ccccc3)NC4=O)NC(=O)[C@H](Cc3ccccc3)NC(=O)[C@H](C)NC(=O)C(C)(C)NC(=O)[C@H](Cc3cccc(C(=O)O)c3)NC(=O)[C@H](CC(=O)O)NC1=O)NC(=O)[C@H](CC(C)(C)C)NC(=O)[C@H](CC(=O)O)NC2=O` (stereo partly drawn) [I-418, Ac-PL3-Asp-Npg-B5-Asp-3COOHF-Aib-Ala-Phe-TriAzLys*3-PyrS2-Phe-BztA-sAla*3-Ala-NH2], the figures for the IC50 in test [1] and in test [2] were 1.5 to 3 µM and under 50 nM, respectively.
The like results for `CC(=O)N1CCC[C@]12CC=CCCCC1(CCCC=CCCCOC(=O)N3CC[C@@]4(C3)NC(=O)[C@H](CCCn3cc(nn3)C[C@@H](C(=O)N[C@@H](C)C(N)=O)NC(=O)[C@H](Cc3csc5ccccc35)NC(=O)[C@H](Cc3ccsc3)NC4=O)NC(=O)[C@H](Cc3ccccc3)NC(=O)[C@H](C)NC(=O)C(C)(C)NC(=O)[C@H](Cc3cccc(C(=O)O)c3)NC(=O)[C@H](CC(=O)O)NC1=O)NC(=O)[C@H](CC(C)(C)C)NC(=O)[C@H](CC(=O)O)NC2=O` (stereo partly drawn) [I-421, Ac-PL3-Asp-Npg-B5-Asp-3COOHF-Aib-Ala-Phe-TriAzOrn*3-PyrS2-3Thi-BztA-sAla*3-Ala-NH2] were, in that order, over 10 µM and under 50 nM.
For `CC(=O)N1CCC[C@]12CC=CCCCC1(CCCC=CCCCOC(=O)N3CC[C@@]4(C3)NC(=O)[C@H](CCCn3cc(nn3)C[C@@H](C(=O)N[C@@H](C)C(N)=O)NC(=O)[C@H](Cc3csc5ccccc35)NC(=O)[C@H](Cc3ccccc3)NC4=O)NC(=O)[C@H](Cc3ccccc3)NC(=O)[C@H](C)NC(=O)C(C)(C)NC(=O)[C@H](Cc3cccc(C(=O)O)c3)NC(=O)[C@H](CC(=O)O)NC1=O)NC(=O)[C@H](CC(C)(C)C)NC(=O)[C@H](CC(=O)O)NC2=O` (stereo partly drawn) [I-422, Ac-PL3-Asp-Npg-B5-Asp-3COOHF-Aib-Ala-Phe-TriAzOrn*3-PyrS2-Phe-BztA-sAla*3-Ala-NH2], the figures for the IC50 in test [1] and in test [2] were over 10 µM and under 50 nM, respectively.
For `CC(=O)N1CCC[C@]12CC=CCCCC1(CCCC=CCCCOC(=O)N3CC[C@@]4(C3)NC(=O)[C@H](CCCn3cc(nn3)CC[C@@H](C(=O)N[C@@H](C)C(N)=O)NC(=O)[C@H](Cc3csc5ccccc35)NC(=O)[C@H](Cc3ccsc3)NC4=O)NC(=O)[C@H](Cc3ccccc3)NC(=O)[C@H](C)NC(=O)C(C)(C)NC(=O)[C@H](Cc3cccc(C(=O)O)c3)NC(=O)[C@H](CC(=O)O)NC1=O)NC(=O)[C@H](CC(C)(C)C)NC(=O)[C@H](CC(=O)O)NC2=O` (stereo partly drawn) [I-423, Ac-PL3-Asp-Npg-B5-Asp-3COOHF-Aib-Ala-Phe-TriAzOrn*3-PyrS2-3Thi-BztA-sAbu*3-Ala-NH2], the IC50 in test [1] was 3 to 10 µM; in test [2], under 50 nM.
On to `CC(=O)N1CCC[C@]12CC=CCCCC1(CCCC=CCCCOC(=O)N3CC[C@@]4(C3)NC(=O)[C@H](CCCn3cc(nn3)CC[C@@H](C(=O)N[C@@H](C)C(N)=O)NC(=O)[C@H](Cc3csc5ccccc35)NC(=O)[C@H](Cc3ccccc3)NC4=O)NC(=O)[C@H](Cc3ccccc3)NC(=O)[C@H](C)NC(=O)C(C)(C)NC(=O)[C@H](Cc3cccc(C(=O)O)c3)NC(=O)[C@H](CC(=O)O)NC1=O)NC(=O)[C@H](CC(C)(C)C)NC(=O)[C@H](CC(=O)O)NC2=O` (stereo partly drawn) [I-424, Ac-PL3-Asp-Npg-B5-Asp-3COOHF-Aib-Ala-Phe-TriAzOrn*3-PyrS2-Phe-BztA-sAbu*3-Ala-NH2], for which the IC50 is 3 to 10 µM in test [1] and under 50 nM in test [2].
Consider “Ac-PL3-Asp-Npg-B5-Asp-TfeGA-Ala-Ala-Phe-Lys*3-PyrS2-2F3MeF-BztA-GlnR*3-Aib-NH2 [I-126]”, for which the IC50 in test [3] lay within 1000 to 5000 nM.
